This is an account of results in patent US20110262396A1, “COMBINATION TREATMENTS COMPRISING PROTEASE BINDING PROTEINS FOR INFLAMMATORY DISORDERS” (DYAX CORP., priority 2008, published 2011).

The test system of this test is collagen-induced arthritis (CIA). The test can be described thus: CIA mouse model, DX-2712 as monotherapy or combined with DMARDs or BRMs (Example 7). In kind it is in vivo, mouse (DBA/1). The following applies: end of study, 31 days of therapy; number in parentheses = dose in mg/kg (Table 12); DX-2712 20 mg/kg IP Q2D. How it is done:
To further evaluate if DX-2712 can lower the optimal therapeutic doses of DMARDs or BRMs, DX-2712 was tested in a CIA model as a monotherapy or in combination with other DMARDs (methotrexate) or BRMs (ENBREL® or ORENCIA®). In combination groups, DX-2712 was combined with the suboptimal dose of methotrexate, ENBREL® or ORENCIA®, which was determined based on literature reports (Neurath et al. 1999. Clin. Exp. Immunol. 115:42-55; Newton et al. 2001. Ann. Rheum. Dis. 60:iii25-iii32; Zalevsky et al. 2007. J. Immunol. 179:1872-1883).
However, due to the lack of monotherapy with suboptimal dose of DMARD or BRM (1 mg/kg for methotrexate, 10 mg/kg for ENBREL®, and 1 mg/kg for ORENCIA®), a further in-depth study is carried out to determine the best suboptimal doses of the DMARD or BRMs to use in combination with DX-2712 and to confirm these preliminary findings.

As for Abatacept [Orencia (2)], the “% change in AI Score” value is listed as −46.67%.
